Values quoted from earlier work in US9408887B2, “Intermittent dosing regimen for treating breast cancer” (New York University, priority 2011, dated 2016).

Sequences of proteins named here, by UniProt entry; tags and fusion partners are left off.
UniProt P30872, whole entry, species assumed: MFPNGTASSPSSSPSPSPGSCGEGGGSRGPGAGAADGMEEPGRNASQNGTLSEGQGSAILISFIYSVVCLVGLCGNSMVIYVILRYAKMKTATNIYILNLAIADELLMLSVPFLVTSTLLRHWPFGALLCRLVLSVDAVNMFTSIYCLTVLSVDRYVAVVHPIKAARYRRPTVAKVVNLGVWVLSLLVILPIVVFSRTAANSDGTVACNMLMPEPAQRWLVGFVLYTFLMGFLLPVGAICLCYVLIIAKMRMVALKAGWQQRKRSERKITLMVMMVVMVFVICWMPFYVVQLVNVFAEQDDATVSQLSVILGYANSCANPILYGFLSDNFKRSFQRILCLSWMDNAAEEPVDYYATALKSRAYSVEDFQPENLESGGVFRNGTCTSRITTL
UniProt P32745, whole entry, species assumed: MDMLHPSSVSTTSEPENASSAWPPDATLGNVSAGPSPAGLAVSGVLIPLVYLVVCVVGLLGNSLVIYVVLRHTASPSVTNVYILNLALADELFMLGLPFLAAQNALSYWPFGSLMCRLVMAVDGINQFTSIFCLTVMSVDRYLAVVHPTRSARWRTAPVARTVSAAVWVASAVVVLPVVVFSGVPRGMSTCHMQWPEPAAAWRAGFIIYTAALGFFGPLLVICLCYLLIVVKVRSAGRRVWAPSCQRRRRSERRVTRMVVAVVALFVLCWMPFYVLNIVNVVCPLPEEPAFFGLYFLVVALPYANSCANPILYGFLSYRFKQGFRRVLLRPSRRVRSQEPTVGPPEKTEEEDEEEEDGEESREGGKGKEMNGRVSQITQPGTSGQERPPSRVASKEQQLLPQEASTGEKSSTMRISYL
UniProt P30874, whole entry, species assumed: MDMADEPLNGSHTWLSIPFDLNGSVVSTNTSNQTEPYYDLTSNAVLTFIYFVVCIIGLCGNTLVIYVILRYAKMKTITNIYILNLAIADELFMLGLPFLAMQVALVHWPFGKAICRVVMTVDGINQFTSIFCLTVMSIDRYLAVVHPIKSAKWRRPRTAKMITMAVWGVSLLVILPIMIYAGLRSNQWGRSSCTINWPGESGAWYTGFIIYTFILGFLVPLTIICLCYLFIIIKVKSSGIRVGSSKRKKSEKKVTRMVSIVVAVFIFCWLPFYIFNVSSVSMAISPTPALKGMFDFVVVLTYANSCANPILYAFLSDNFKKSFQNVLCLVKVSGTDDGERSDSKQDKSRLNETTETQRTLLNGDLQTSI
UniProt P31391, whole entry, species assumed: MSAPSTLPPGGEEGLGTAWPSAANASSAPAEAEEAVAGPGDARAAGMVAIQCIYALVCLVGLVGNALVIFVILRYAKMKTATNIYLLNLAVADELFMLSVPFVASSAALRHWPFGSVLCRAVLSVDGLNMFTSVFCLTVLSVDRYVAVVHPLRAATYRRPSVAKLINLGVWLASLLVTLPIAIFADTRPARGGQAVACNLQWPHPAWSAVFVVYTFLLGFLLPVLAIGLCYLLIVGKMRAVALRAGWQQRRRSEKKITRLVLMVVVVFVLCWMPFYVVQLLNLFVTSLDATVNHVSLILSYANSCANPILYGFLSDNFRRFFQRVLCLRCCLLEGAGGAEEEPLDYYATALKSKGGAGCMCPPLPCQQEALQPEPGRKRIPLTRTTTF
UniProt P35346, whole entry, species assumed: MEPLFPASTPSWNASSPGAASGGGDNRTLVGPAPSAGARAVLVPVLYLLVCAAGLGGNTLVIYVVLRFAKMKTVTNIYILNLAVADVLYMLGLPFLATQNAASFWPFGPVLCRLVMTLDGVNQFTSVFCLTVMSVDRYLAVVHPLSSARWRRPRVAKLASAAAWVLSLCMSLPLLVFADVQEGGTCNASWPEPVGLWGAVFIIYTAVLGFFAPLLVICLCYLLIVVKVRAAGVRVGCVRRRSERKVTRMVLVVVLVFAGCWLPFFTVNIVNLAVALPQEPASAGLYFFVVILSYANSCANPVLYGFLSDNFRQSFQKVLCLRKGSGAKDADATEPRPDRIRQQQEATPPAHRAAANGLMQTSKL

Key:
Settings in all cases: cited from earlier work
[1] = target: SSTR-1 (Homo sapiens, UniProt P30872)
[2] = target: SSTR-3 (Homo sapiens, UniProt P32745)
[3] = target: SSTR-2 (Homo sapiens, UniProt P30874)
[4] = target: SSTR-4 (Homo sapiens, UniProt P31391)
[5] = target: SSTR-5 (Homo sapiens, UniProt P35346)

Substance | affinity for SSTR-1 [1] | affinity for SSTR-3 [2] | affinity for SSTR-2 [3] | affinity for SSTR-4 [4] | affinity for SSTR-5 [5]
Octreotide | low affinity | relatively low affinity; also recorded: moderate affinity | high affinity | moderate affinity | relatively low affinity; also recorded: moderate affinity
vapreotide | low affinity | relatively low affinity; also recorded: moderate affinity | high affinity | moderate affinity | relatively low affinity; also recorded: moderate affinity

“Also recorded” adds a separate entry of the source.
